Consider three molecules from patent US20150203579A1 (Regeneron, published 2015).

Assay [1] has as its target PD-1 chimera: extracellular domain of human PD-1 with trans-membrane and cytoplasmic domains of human CD300a, … (human, UniProt Q9UGN4, in part). The experiment in a line: cell-based or functional assay.
Assay [2] concerns the target T1, full length human PD-1 on HEK293/hPD-1 cells (human, UniProt Q15116). The experiment in a line: FACS, 100 nM mAb, HEK293/hPD-1 cells.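 Further: antibodies incubated with cells for 15-30 min on ice, bound antibody detected through a secondary F(ab′)2 by flow cytometry, with parental HEK293 cells tested in parallel.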 For orientation: In flow cytometry, cells or beads pass a laser one at a time.
In assay [3] the target is T1, full length human PD-1 on HEK293/hPD-1 …. Put plainly: FACS dose response, HEK293/hPD-1 cells.
The target in assay [4] is T2, recombinant human PD-1 dimer expressed with a C-terminal mouse IgG2a Fc tag (human).
T2 construct: also called hPD-1-mFc
T2 chain: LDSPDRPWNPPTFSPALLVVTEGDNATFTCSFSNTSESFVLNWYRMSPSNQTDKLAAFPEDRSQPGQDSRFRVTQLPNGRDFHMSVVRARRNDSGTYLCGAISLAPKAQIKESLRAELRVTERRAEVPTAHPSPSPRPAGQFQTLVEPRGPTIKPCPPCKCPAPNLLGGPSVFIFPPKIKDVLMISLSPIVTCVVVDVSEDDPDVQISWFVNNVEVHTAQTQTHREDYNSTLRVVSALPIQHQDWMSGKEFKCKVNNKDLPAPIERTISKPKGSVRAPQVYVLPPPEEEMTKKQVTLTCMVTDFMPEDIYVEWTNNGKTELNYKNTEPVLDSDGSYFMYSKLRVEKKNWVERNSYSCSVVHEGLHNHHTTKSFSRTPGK
Put plainly: competition ELISA: 1.5 nM hPD-1-mFc to coated hPD-L1-hFc. In general terms: ELISA stands for enzyme-linked immunosorbent assay.

For assay [5], the target named is T2, recombinant human PD-1 dimer expressed …. Put plainly: BLI Octet: 100 nM hPD-1-mFc + 500 nM mAb to captured hPD-L1-hFc. Background: BLI is a label-free optical method that tracks binding on a fibre tip over time.
In assay [6] the target is T3, recombinant human PD-1 expressed with a C-terminal myc-myc-hexahistidine tag (human).
T3 construct: monomeric; also called hPD-1-MMH; human PD-1-MMH
T3 chain: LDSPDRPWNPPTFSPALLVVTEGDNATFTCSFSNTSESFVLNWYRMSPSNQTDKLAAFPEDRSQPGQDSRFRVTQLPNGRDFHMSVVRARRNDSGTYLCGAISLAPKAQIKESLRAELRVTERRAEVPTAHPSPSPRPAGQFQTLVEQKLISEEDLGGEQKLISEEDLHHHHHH
The experiment in a line: SPR, mAb captured, 37C.

In assay [7] the target is T4, human PD-1 dimer (human PD-1-mFc or human PD-1-hFc) (human, UniProt Q15116 25-170).
T4 construct: also called hPD-1-mFc; hPD1-hFc
T4 chain: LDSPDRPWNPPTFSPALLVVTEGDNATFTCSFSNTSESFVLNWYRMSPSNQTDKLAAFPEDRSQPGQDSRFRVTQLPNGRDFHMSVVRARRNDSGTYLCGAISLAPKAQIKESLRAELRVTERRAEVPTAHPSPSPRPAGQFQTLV
The experiment in a line: SPR, mAb captured, 25C.

For assay [8], the target named is T4, human PD-1 dimer (human PD-1-mFc or …). The experiment in a line: SPR, mAb captured, 37C.
The target of assay [9] is T5, recombinant cynomolgus monkey PD-1 expressed with a C-terminal myc-myc-hexahistidine tag (cynomolgus monkey (Macaca fascicularis)).
T5 construct: monomeric; also called MfPD-1-MMH
T5 chain: T3 chain with D2E, V19L, T35A, Q67R, T144A
The experiment in a line: SPR, mAb captured, 25C.

In assay [10] the target is T5, recombinant cynomolgus monkey PD-1 …. The experiment in a line: SPR, mAb captured, 37C.
Assay [11] addresses T6, recombinant human PD-1 expressed with a C-terminal myc-myc-hexahistidine tag (human).
T6 construct: also called hPD-1-MMH; human PD-1-MMH
T6 chain: T3 chain
Put plainly: SPR (Biacore), mAb captured, hPD-1-MMH injected, 25 C.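 Further: rate constants obtained by fitting sensorgrams to a 1:1 binding model, KD derived as kd/ka and half-life as ln2/(60·kd) in minutes.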

Substitutions are numbered along the chain they refer to.

B1: H2aM7790N (antibody, V domains shown)
VH: EVQLVESGGGLVKPGGSLRLSCAASGFKFSNEWMSWVRQAPGKGLEWVGRIKSKTDGGTTDYAAPVKGRFTISRDDSKNTLYLQMNSLKTEDTAVYYCTTDQDFWSGYYTGADYYGMDVWGQGTMVTVSS
VL: [sequence of about 100 residues not given]
notes: human variable regions, mouse IgG2a Fc; also called H2M7790N
As to B1, the “Concentration (M) of Antibody at 150% activation” value in [1] stood at 5.24e-09 M. This molecule had an MFI in assay [2] of 47300 MFI. In assay [3], the concentration giving a half-maximal response (EC50) is 0.171 nM and the “Max Geom. Mean MFI @ 100 nM” value amounted to 19200 MFI. Further, in [4], the “% blocking at 200 nM antibody” value came out at 74% and the IC50 stood at 1.5 nM. Further, in assay [5], the “% Blocking” value came to 114% and the “binding of the mixture (nm)” value was -0.01 nm.

B2: H2aM7790N (antibody, mouse IgG2a, V domains shown)
VH: B1 VH
VL: [sequence of about 100 residues not given]
notes: Human variable regions, mouse IgG2a Fc; also called H2M7790N
With B2, the Kd stood at 84.9 nM in [6]; 0.162 nM in assay [7]; 0.422 nM in assay [8]; 30.1 nM in [9]; 271 nM in assay [10]. For the same molecule, the koff in assay [6] worked out at 0.0052 s⁻¹; in [7], 3.02e-05 s⁻¹; in assay [8], 8.49e-05 s⁻¹; in assay [9], 0.000937 s⁻¹; in assay [10], 0.00693 s⁻¹. Further, the kon was 61300 M⁻¹ s⁻¹ in assay [6]; 186000 M⁻¹ s⁻¹ in assay [7]; 201000 M⁻¹ s⁻¹ in [8]; 31100 M⁻¹ s⁻¹ in assay [9]; 25500 M⁻¹ s⁻¹ in [10]. For the same molecule, the t½ in assay [6] turned out to be 2.2 min; in [7], 383 min; in assay [8] it was 136 min; in [9], 12 min; in assay [10] it was 1.7 min.

B3: H2aM7790N (antibody, mouse IgG2a, V domains shown)
VH: B1 VH
VL: [sequence of about 100 residues not given]
notes: Human variable domains, mouse IgG2a Fc; also called H2M7790N
Turning to B3, in assay [11], the Kd came to 17.8 nM, the koff worked out at 0.000823 s⁻¹, the on-rate (kon) came out at 46300 M⁻¹ s⁻¹ and the t½ is 14 min.

A word on the EC50: it is the concentration needed to bring the measured effect to its halfway point. As a reminder, the IC50 is the concentration that gives 50% inhibition. As usually defined, the Kd is the equilibrium constant for the complex coming apart. What is called koff is the first-order rate constant of dissociation. The kon is a measure of how fast the partners come together. As a reminder, the t½ is the time needed for the level to fall by half in the phase considered.
